# Laboratory results taken from PubChem BioAssay (NCI).
#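 Step 1: Grow cells in 96-well plates. Step 2: Expose to compound for 48 hours at 5 concentrations. Step 3: Interpolate endpoints linearly; if unreached, use highest concentration. GI50 = concentration required for 50% inhibition of growth. TGI: concentration producing complete growth inhibition.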
# Tests used:
# Experiment in all cases: NCI tumour cell line growth inhibition, 48 h
# 786-0 renal = tested on: 786-0 renal
# A498 renal = tested on: A498 renal
# A549 NSCLC = tested on: A549 NSCLC
# ACHN renal = tested on: ACHN renal
# BT-549 breast = tested on: BT-549 breast
# CAKI-1 renal = tested on: CAKI-1 renal
# CCRF-CEM leukemia = tested on: CCRF-CEM leukemia
# COLO 205 colon = tested on: COLO 205 colon
# DU-145 prostate = tested on: DU-145 prostate
# EKVX NSCLC = tested on: EKVX NSCLC
# HCT-116 colon = tested on: HCT-116 colon
# HCT-15 colon = tested on: HCT-15 colon
# HL-60(TB) leukemia = tested on: HL-60(TB) leukemia
# HOP-62 NSCLC = tested on: HOP-62 NSCLC
# HOP-92 NSCLC = tested on: HOP-92 NSCLC
# HS 578T breast = tested on: HS 578T breast
# HT29 colon = tested on: HT29 colon
# IGROV1 ovarian = tested on: IGROV1 ovarian
# K-562 leukemia = tested on: K-562 leukemia
# KM12 colon = tested on: KM12 colon
# LOX IMVI melanoma = tested on: LOX IMVI melanoma
# M14 melanoma = tested on: M14 melanoma
# MALME-3M melanoma = tested on: MALME-3M melanoma
# MCF7 breast = tested on: MCF7 breast
# MDA-MB-231 breast = tested on: MDA-MB-231 breast
# MDA-MB-435 = tested on: MDA-MB-435
# MDA-N = tested on: MDA-N
# MOLT-4 leukemia = tested on: MOLT-4 leukemia
# NCI-H23 lung = tested on: NCI-H23 lung
# NCI-H322M lung = tested on: NCI-H322M lung
# NCI-H460 lung = tested on: NCI-H460 lung
# NCI-H522 lung = tested on: NCI-H522 lung
# NCI/ADR-RES ovarian = tested on: NCI/ADR-RES ovarian
# OVCAR-3 ovarian = tested on: OVCAR-3 ovarian
# OVCAR-4 ovarian = tested on: OVCAR-4 ovarian
# OVCAR-5 ovarian = tested on: OVCAR-5 ovarian
# OVCAR-8 ovarian = tested on: OVCAR-8 ovarian
# PC-3 prostate = tested on: PC-3 prostate
# RPMI-8226 leukemia = tested on: RPMI-8226 leukemia
# RXF 393 renal = tested on: RXF 393 renal
# SF-268 CNS = tested on: SF-268 CNS
# SF-295 CNS = tested on: SF-295 CNS
# SF-539 CNS = tested on: SF-539 CNS
# SK-MEL-2 melanoma = tested on: SK-MEL-2 melanoma
# SK-MEL-28 melanoma = tested on: SK-MEL-28 melanoma
# SK-MEL-5 melanoma = tested on: SK-MEL-5 melanoma
# SK-OV-3 ovarian = tested on: SK-OV-3 ovarian
# SN12C renal = tested on: SN12C renal
# SNB-19 CNS = tested on: SNB-19 CNS
# SNB-75 CNS = tested on: SNB-75 CNS
# SR leukemia = tested on: SR leukemia
# SW-620 colon = tested on: SW-620 colon
# T-47D breast = tested on: T-47D breast
# TK-10 renal = tested on: TK-10 renal
# U251 CNS = tested on: U251 CNS
# UACC-257 melanoma = tested on: UACC-257 melanoma
# UACC-62 melanoma = tested on: UACC-62 melanoma
# UO-31 renal = tested on: UO-31 renal
smiles,measurement,setting,value
COc1ccc([N+](=O)[O-])c(C[N+](C)(CCCl)CCCl)c1,TGI,786-0 renal,> 100 µM
same,TGI,A498 renal,> 100 µM
same,TGI,A549 NSCLC,> 100 µM
same,TGI,ACHN renal,> 100 µM
same,TGI,BT-549 breast,> 100 µM
same,GI50,CAKI-1 renal,33.1 µM
same,TGI,CAKI-1 renal,> 100 µM
same,TGI,CCRF-CEM leukemia,> 100 µM
same,TGI,COLO 205 colon,> 100 µM
same,TGI,DU-145 prostate,> 100 µM
same,TGI,EKVX NSCLC,> 100 µM
same,TGI,HCT-116 colon,> 100 µM
same,TGI,HCT-15 colon,> 100 µM
same,TGI,HL-60(TB) leukemia,> 100 µM
same,TGI,HOP-62 NSCLC,> 100 µM
same,TGI,HOP-92 NSCLC,> 100 µM
same,TGI,HS 578T breast,> 100 µM
same,TGI,HT29 colon,> 100 µM
same,TGI,IGROV1 ovarian,> 100 µM
same,TGI,K-562 leukemia,> 100 µM
same,TGI,KM12 colon,> 100 µM
same,TGI,LOX IMVI melanoma,> 100 µM
same,TGI,M14 melanoma,> 100 µM
same,TGI,MALME-3M melanoma,> 100 µM
same,TGI,MCF7 breast,> 100 µM
same,TGI,MDA-MB-231 breast,> 100 µM
same,TGI,MDA-MB-435,> 100 µM
same,TGI,MDA-N,> 100 µM
same,GI50,MOLT-4 leukemia,69.1 µM
same,TGI,MOLT-4 leukemia,> 100 µM
same,TGI,NCI-H23 lung,> 100 µM
same,TGI,NCI-H322M lung,> 100 µM
same,TGI,NCI-H460 lung,> 100 µM
same,TGI,NCI-H522 lung,> 100 µM
same,TGI,NCI/ADR-RES ovarian,> 100 µM
same,TGI,OVCAR-3 ovarian,> 100 µM
same,TGI,OVCAR-4 ovarian,> 100 µM
same,TGI,OVCAR-5 ovarian,> 100 µM
same,TGI,OVCAR-8 ovarian,> 100 µM
same,TGI,PC-3 prostate,> 100 µM
same,TGI,RPMI-8226 leukemia,> 100 µM
same,TGI,RXF 393 renal,> 100 µM
same,TGI,SF-268 CNS,> 100 µM
same,TGI,SF-295 CNS,> 100 µM
same,TGI,SF-539 CNS,> 100 µM
same,TGI,SK-MEL-2 melanoma,> 100 µM
same,TGI,SK-MEL-28 melanoma,> 100 µM
same,TGI,SK-MEL-5 melanoma,> 100 µM
same,TGI,SK-OV-3 ovarian,> 100 µM
same,TGI,SN12C renal,> 100 µM
same,TGI,SNB-19 CNS,> 100 µM
same,TGI,SNB-75 CNS,> 100 µM
same,GI50,SR leukemia,5.71 µM
same,TGI,SR leukemia,> 100 µM
same,TGI,SW-620 colon,> 100 µM
same,TGI,T-47D breast,> 100 µM
same,TGI,TK-10 renal,> 100 µM
same,TGI,U251 CNS,> 100 µM
same,TGI,UACC-257 melanoma,> 100 µM
same,TGI,UACC-62 melanoma,> 100 µM
same,TGI,UO-31 renal,> 100 µM
